From patent US9688668B2, “Long chain base sphingosine kinase inhibitors” (UNIVERSITY OF VIRGINIA PATENT FOUNDATION, priority 2012, dated 2017)

By UniProt entry, the sequences of proteins in these tests, tags left out. Where a name states a change or a piece, a line headed by the entry shows the natural chain unless it says otherwise.
UniProt Q9JIA7: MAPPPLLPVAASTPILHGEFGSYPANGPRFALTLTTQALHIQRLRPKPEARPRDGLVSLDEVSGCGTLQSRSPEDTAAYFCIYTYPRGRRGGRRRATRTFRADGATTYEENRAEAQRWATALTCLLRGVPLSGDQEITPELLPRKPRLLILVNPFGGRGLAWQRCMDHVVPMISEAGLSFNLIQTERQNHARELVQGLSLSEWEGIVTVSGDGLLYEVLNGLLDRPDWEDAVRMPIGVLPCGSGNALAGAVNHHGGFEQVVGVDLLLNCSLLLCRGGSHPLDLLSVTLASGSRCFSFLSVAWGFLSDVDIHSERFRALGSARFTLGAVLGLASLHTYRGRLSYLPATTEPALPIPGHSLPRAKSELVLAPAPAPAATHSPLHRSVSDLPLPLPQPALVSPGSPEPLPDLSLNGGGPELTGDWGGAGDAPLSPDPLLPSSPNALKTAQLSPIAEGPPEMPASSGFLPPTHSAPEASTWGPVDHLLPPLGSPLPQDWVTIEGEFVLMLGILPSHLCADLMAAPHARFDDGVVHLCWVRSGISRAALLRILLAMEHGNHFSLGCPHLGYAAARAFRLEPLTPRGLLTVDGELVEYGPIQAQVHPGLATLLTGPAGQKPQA

Target: recombinant SphK2 (Mus musculus, UniProt Q9JIA7)
Test: SphK2 scintillation proximity kinase assay
Type: biochemical
Details: recombinant SphK1 and SphK2; variable sphingosine, fixed ATP

SMILES: CCCCCCCCCCCCc1ccc(C(=O)N2CCCC2C(=N)N)cc1 (stereo not shown) [Compound 1a, reference compound]
- pattern of inhibition: competitive inhibition
